Data published in US8829000B2, “Substituted imidazo[1,5-A]quinoxalines as phosphodiesterase 9 inhibitors” (ASKA Pharmaceutical Co., Ltd., priority 2006, dated 2014).

System: partial urethra obstruction model in guinea pigs
Experiment: Dysuria pathological model: cystometry in partial urethra obstruction model
Type: in vivo, Hartley female guinea pigs
Conditions: guinea pig; for Frequency of occurrence of uninhibited contraction, before administration: baseline
Experimental: Three-four weeks old Hartley female guinea pigs (Japan SLC, Inc.) were given celiotomy under anesthesia with pentobarbital (30 mg/kg i.p.) and in their urethra to the peripheral side by 1-2 mm from the bladder neck, each a polyethylene tube of […] and 2.0 mm in inner diameter was placed.
The model was catheterized under anesthesia with urethane (1 g/kg i.p.) at the apex of urinary bladder and right jugular vein for cystometrography and intravenous administration, respectively. The other end of the bladder catheter was connected to a pressure transducer and infusion pump via a three way stop-cock, and physiological saline was continuously infused into the bladder through the infusion pump at a rate of 0.4 mL/min. to induce micturition reflex. Immediately after the micturition reflex was induced, infusion of physiological saline into the bladder was stopped. The intravesical pressure at the time the micturition reflex was induced was measured with the pressure transducer, and the obtained cystometrogram was recorded with pen recorder. The urine voided was collected with disposable type weighing dish and its weight was measured. Further the physiological saline remained in the bladder was sucked with syringe via the bladder catheter and the residual urine volume was measured. The operations of suspending the infusion of physiological saline upon induction of micturition reflex, and about 1 minute thereafter resuming the infusion of physiological saline to induce micturition reflex were repeated plural times (generally 4 times) to stabilize the micturition reflex.
After stabilizing the micturition reflex, a compound solution (prepared by dissolving the compound or methanesulfonic acid salt thereof in DMSO and diluting it with physiological saline or distilled water) or physiological saline was administered into the vein at a volume of 10 mL/kg over 4 minutes, and simultaneously the above-described micturition reflex operations were repeated until 30 minutes passed after initiation of the administration, while measuring the intravesical pressure and the volumes of micturition and residual urine. Also the frequency of uninhibited contraction occurrence during the above-described operations was recorded.

Compound: CC(C)c1n[nH]c2c(=O)[nH]c(Cc3cccc(Cl)c3)nc12 [Referential Example 1, reference compound]
- Frequency of occurrence of uninhibited contraction, after administration (0.1 mg/kg i.v.): 0.91 times/min
- Frequency of occurrence of uninhibited contraction, after administration (1 mg/kg i.v.): 1.03 times/min
- Frequency of occurrence of uninhibited contraction, quantitative change (1 mg/kg i.v.): −0.33 times/min
- Frequency of occurrence of uninhibited contraction, after administration (3 mg/kg i.v.): 1.09 times/min
- Frequency of occurrence of uninhibited contraction, before administration (dose group 0.1 mg/kg i.v.): 1.36 times/min
- Frequency of occurrence of uninhibited contraction, before administration (dose group 1 mg/kg i.v.): 1.36 times/min
- Frequency of occurrence of uninhibited contraction, before administration (dose group 3 mg/kg i.v.): 1.60 times/min
